PubChem BioAssay AID624151 (Broad Institute, 2012)
Only a part is listed here, and it is no random draw. Some salts and complexes are drawn in separate pieces, as the source files them; their charges need not balance. Active and inactive are the calls of the source. Rule as the data show it: active = activation above about 52%; inconclusive = no clear call, values can overlap the other calls; inactive = below that.

Experiment: mutant p53 pathway re-activators, primary screen, cell-based, SW480, luciferase, single point, HTS (AID 624151)
Conditions: SW480 PUMA-promoter luciferase, p53 mutant reactivation; at 9.98 µM; hits give high values

| SMILES | activation |
| --- | --- |
| C/C1=C2N=C(/C=C3N=C(/C(C)=C4\[N-][C@@](C)([C@@H]5N=C1[C@](C)(CCC(=O)NCC(C)OP(=O)(O)O[C@@H]1[C@H](O)[C@H](n6cnc7cc(C)c(C)cc76)O[C@H]1CO)[C@H]5CC(N)=O)[C@@](C)(CC(N)=O)[C@@H]4CCC(N)=O)[C@@](C)(CC(N)=O)[C@@H]\3CCC(N)=O)C(C)(C)[C@@H]/2CCC(N)=O.[C-]#N.[Co+3] (some centres not stated) | inactive: 5.86% |
| C/C1=C2N=C(/C=C3N=C(/C(C)=C4\[N-][C@@](C)([C@@H]5N=C1[C@](C)(CCC(=O)NC[C@@H](C)OP(=O)(O)O[C@H]1[C@@H](O)[C@@H](n6cnc7cc(C)c(C)cc76)O[C@@H]1CO)[C@H]5CC(N)=O)[C@@](C)(CC(N)=O)[C@@H]4CCC(N)=O)[C@@](C)(CC(N)=O)[C@@H]\3CCC(N)=O)C(C)(C)[C@@H]/2CCC(N)=O.[C-]#N.[Co+3] | inactive: -13.7% |
